Reference: patent US20140221282A1, “LONG DURATION DUAL HORMONE CONJUGATES” (priority 2011, published 2014)

Target: rat GLP-1 receptor (rat) (UniProt P32301)
Assay: cell-based or functional assay

Substance: Exendin-4 (peptide)
- GLP-1 cyclase assay EC50 (control peptide): 4 pM
